For 3 compounds, Ki and IC50 results are on record in US9604982B2, “P2X7 modulators” (Janssen Pharmaceutica NV, priority 2013, dated 2017).

Amino acid sequences for entries named in this document (tags omitted). A change or cut given only in a name is not applied to a line headed by its entry.
UniProt Q64663: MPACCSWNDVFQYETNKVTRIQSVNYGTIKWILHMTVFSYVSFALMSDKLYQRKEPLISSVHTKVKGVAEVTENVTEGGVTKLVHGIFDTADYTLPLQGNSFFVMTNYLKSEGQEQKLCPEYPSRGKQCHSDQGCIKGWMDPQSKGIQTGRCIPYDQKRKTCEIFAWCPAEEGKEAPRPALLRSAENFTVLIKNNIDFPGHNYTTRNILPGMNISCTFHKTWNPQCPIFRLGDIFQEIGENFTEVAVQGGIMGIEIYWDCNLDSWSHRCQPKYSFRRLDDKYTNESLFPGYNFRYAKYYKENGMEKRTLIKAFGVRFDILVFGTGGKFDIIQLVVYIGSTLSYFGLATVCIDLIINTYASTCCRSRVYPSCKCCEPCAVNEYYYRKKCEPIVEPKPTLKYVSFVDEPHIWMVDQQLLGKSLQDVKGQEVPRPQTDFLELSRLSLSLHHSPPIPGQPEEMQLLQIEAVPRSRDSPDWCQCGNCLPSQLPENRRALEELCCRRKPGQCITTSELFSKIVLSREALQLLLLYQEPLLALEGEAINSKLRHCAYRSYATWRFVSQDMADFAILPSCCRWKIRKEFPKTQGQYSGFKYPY
UniProt Q99572: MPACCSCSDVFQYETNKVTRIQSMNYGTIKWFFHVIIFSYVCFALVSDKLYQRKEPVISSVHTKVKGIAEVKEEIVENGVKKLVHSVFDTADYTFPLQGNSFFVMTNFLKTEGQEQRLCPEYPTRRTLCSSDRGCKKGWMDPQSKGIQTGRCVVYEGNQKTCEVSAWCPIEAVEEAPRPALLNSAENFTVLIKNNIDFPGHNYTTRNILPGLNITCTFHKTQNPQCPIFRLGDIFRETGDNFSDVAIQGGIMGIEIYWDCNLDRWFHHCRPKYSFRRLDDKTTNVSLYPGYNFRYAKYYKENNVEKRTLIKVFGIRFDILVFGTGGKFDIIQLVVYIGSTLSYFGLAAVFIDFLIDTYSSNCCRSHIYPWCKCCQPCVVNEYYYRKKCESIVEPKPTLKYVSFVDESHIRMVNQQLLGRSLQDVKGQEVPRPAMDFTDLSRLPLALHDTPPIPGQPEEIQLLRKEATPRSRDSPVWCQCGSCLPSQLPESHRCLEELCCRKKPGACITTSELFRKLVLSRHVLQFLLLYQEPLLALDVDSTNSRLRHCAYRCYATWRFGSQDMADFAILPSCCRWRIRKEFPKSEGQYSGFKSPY

In one experiment the target is rat P2X7 (Rattus norvegicus (Rat), UniProt Q64663). In words: Radioligand binding, rat P2X7-1321N1 cell membranes, tracer tritiated A-804598. The conditions noted are these: Table 3 (additional runs). On the procedure:
(§1) P2X7 Antagonism in Recombinant Human P2X7 Cells or Recombinant Rat P2X7 Cells: (a) Ca^2+ Flux and (b) Radioligand Binding
(§2) (b) Radioligand binding: human or rat P2X7-1321N1 cells were collected and frozen @ −80° C. On the day of the experiment, cell membrane preparations were made according to standard published methods. The total assay volume was 100 μl:10 μl compound (10×)+(b) 40 μl tracer (2.5×)+50 μl membrane (2×). The tracer used for the assay was tritiated A-804598. The compound can be prepared as described in the literature. […] The assay was terminated by filtration (GF/B filters pre-soaked with 0.3% PEI) and washed with washing buffer (Tris-HCl 50 mM). The IC50 generated in the binding assay was corrected for tracer concentration and affinity of the tracer to derive at the affinity (K) of the test compounds. […] Data are analyzed and graphed on Graphpad Prism 5.

Experiment [1] deals with T1, P2X7 (Homo sapiens (Human), UniProt Q99572). In words: Ca2+ flux (FLIPR) in 1321N1 cells expressing recombinant human P2X7 channel. It is filed as cell-based. Conditions: Table 3 (additional runs); 250 μM BzATP. On the procedure:
as §1
(a) Ca^2+ flux: 1321N1 cells expressing the recombinant human or rat P2X7 channel was cultured in HyQ DME/(HyClone/Dulbecco's Modified Eagle Medium) high glucose supplemented with 10% Fetal Bovine Serum (FBS) and appropriate selection marker. Cells were seeded at a density of 25000 cells/well (96-well clear bottom black walled plates) in 100 μl volume/well. On the day of the experiment, cell plates were washed with assay buffer, containing (in mM): 130 NaCl, 2 KCl, 1 CaCl2, 1 MgCl2, 10 HEPES, 5 glucose; pH 7.40 and 300 mOs. After the wash, cells were loaded with the Calcium-4 dye (Molecular Device) and incubated in the dark for 60 minutes. Test compounds were prepared at 250× the test concentration in neat DMSO. Intermediate 96-well compound plates were prepared by transferring 1.2 μL of the compound into 300 μL of assay buffer. A further 3× dilution occurred when transferring 50 μL/well of the compound plate to 100 μL/well in the cell plate. Cells were incubated with test compounds and dye for 30 minutes. Calcium dye fluorescence was monitored in FLIPR as the cells were challenged by adding 50 μL/well of BzATP (final concentration is 250 μM BzATP (human and rat)). The fluorescence change was measured 180 seconds after adding the agonist.

For experiment [2], the target named is T1, P2X7. In words: Radioligand binding, human P2X7-1321N1 cell membranes, tracer tritiated A-804598. Conditions: Table 3 (additional runs). As to the method:
as §1, §2

`Cc1nc2c(c(-c3ccn[nH]3)n1)C[C@H](C)N(C(=O)c1ccc(Cl)cc1F)C2` (single isomer, unassigned) [Example 89, (S*)-(4-chloro-2-fluorophenyl)(2,6-dimethyl-4-(1H-pyrazol-5-yl)-5,6-dihydropyrido[3,4-d]pyrimidin-7(8H)-yl)methanone] gave an inhibitory constant (Ki) at rat P2X7 of 0.0012 µM.
For `Cc1nc2c(c(-c3ccn[nH]3)n1)C[C@@H](C)N(C(=O)c1cccc(F)c1Cl)C2` (single isomer, unassigned) [Example 144, (R*)-(2-chloro-3-fluorophenyl)(2,6-dimethyl-4-(1H-pyrazol-5-yl)-5,6-dihydropyrido[3,4-d]pyrimidin-7(8H)-yl)methanone], the 50% inhibitory concentration (IC50) on P2X7 [1] worked out at 0.0667 µM.
Regarding `Cc1nc2c(c(-c3ccn[nH]3)n1)CC(C)N(C(=O)c1cccc(F)c1Cl)C2` (stereo not shown) [Example 143, (2-chloro-3-fluorophenyl)(2,6-dimethyl-4-(1H-pyrazol-5-yl)-5,6-dihydropyrido[3,4-d]pyrimidin-7(8H)-yl)methanone], the concentration for half-maximal inhibition (IC50) on P2X7 [1] is 0.0196 µM. Also, the Ki on P2X7 [2] stood at 0.1 µM.
